Laboratory results reported in PubChem BioAssay AID1454 (National Center for Advancing Translational Sciences (NCATS), 2008).
The entries are a selection whose mix differs from that of the whole data set. Inconclusive results are not listed. The source made the active and inactive calls. Calls follow the shape of the dose curve; as a rule, active = well fitted inhibition curve with a large enough effect; inconclusive = small, poorly fitted or top-dose-only effect, or effect the other way; inactive = flat fitted curve, though single readings scatter.

Assay: qHTS Assay for Inhibitors of the ERK Signaling Pathway using a Homogeneous Screening Assay; Stimulation with EGF;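 also: plate controls were stimulated vehicle wells for no effect and unstimulated vehicle basal for full effect; nearly all actives have a fitted effect of over 55% in size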
Conditions: HEK293-V1b, EGF-stimulated phospho-ERK AlphaScreen; at 11.5 µM (top of the series) unless noted

Row | SMILES | activity change, negative = inhibition
1 | CP(=O)(OCCOc1ccccc1)OCCOc1ccccc1 | inactive: -0.388%
2 | CP(=O)(Nc1ccc(Cl)cc1Cl)Oc1ccccc1 (stereo not given) | inactive: -1.23%
3 | Cc1cc(C)cc(OP(C)(=O)Nc2cccc(C(F)(F)F)c2)c1 (stereo not given) | inactive: -3.28%
4 | COc1ccc(OP(C)(=O)Nc2ccccc2Br)cc1 (stereo not given) | inactive: 5.17%
5 | O=[N+]([O-])c1cc([N+](=O)[O-])c(Nc2ccccn2)c([N+](=O)[O-])c1 | inactive: 4.96%
6 | COc1ccccc1OP(C)(=O)Nc1ccccc1Br (stereo not given) | inactive: -3.66% [at 57.5 µM]
7 | CN(C)C(=O)c1c([N+](=O)[O-])cc([N+](=O)[O-])cc1[N+](=O)[O-] | inactive: -2.24%
8 | COc1ccc(OP(C)(=O)Nc2ccc(Br)cc2)cc1 (stereo not given) | inactive: -2.9%
9 | N#[O+].[C-]#N.[C-]#N.[C-]#N.[C-]#N.[C-]#N.[Fe+2].[Na+].[Na+] | inactive: 11.5%
10 | O=C(OCCCN1CCCC1)C(O)(c1ccccc1)C1CCCCC1 (stereo not given) | inactive: 16.2% [at 57.5 µM]
11 | OCCSCCO | inactive: 5.33%
12 | CCc1ccc(OP(C)(=O)Nc2cccnc2)cc1 (stereo not given) | inactive: -6.79%
13 | C/C1=C2N=C(/C=C3N=C(/C(C)=C4\[N-][C@@](C)([C@H]5N=C1[C@@](C)(CCC(=O)NC[C@H](C)OP(=O)([O-])O[C@@H]1[C@H](O)[C@H](n6cnc7cc(C)c(C)cc76)O[C@@H]1CO)[C@@H]5CC(N)=O)[C@](C)(CC(N)=O)[C@H]4CCC(N)=O)[C@@](C)(CC(N)=O)[C@@H]\3CCC(N)=O)C(C)(C)[C@@H]/2CCC(N)=O.[C-]#N.[Co+3] | inactive: 15.4% [at 25.7 µM]
14 | CCOC(=O)c1ccc(NP(C)(=O)Oc2ccc(Cl)cc2)cc1 (stereo not given) | inactive: -3.73%
15 | O=[N+]([O-])c1ccc(OP2(=O)COCCO2)cc1 (stereo not given) | inactive: 8.03% [at 57.5 µM]
16 | Cc1cc(-c2cccc3ccccc23)c(C)cn1.O=[N+]([O-])c1cc([N+](=O)[O-])c(O)c([N+](=O)[O-])c1 | inactive: 2.94% [at 57.5 µM]
17 | COc1ccc(NP(C)(=O)Oc2ccccc2OC)cc1 (stereo not given) | inactive: -7.6% [at 57.5 µM]
18 | CP(=O)(Nc1ccc2c(c1)OCCO2)Oc1ccccc1 (stereo not given) | inactive: -4.88%
19 | CCN(CCCl)Cc1ccccc1C | inactive: 24.2%
20 | CP(=O)(Nc1ccc(SC(F)(F)F)cc1)Oc1ccc(F)cc1 (stereo not given) | inactive: -1.23% [at 57.5 µM]
21 | O=C(OCCN1CCN(CCOCc2ccccc2)CC1)C(O)(c1ccccc1)c1ccccc1 | inactive: -7.61%
22 | CC(C)c1ccc(OP(C)(=O)Nc2ccc(SC(F)(F)F)cc2)cc1 (stereo not given) | inactive: -8.13%
23 | CCN(CC)CCCOC(=O)C(O)(c1ccccc1)C1CCCCC1 (stereo not given) | inactive: 5.61%

Row | SMILES | activity change, negative = inhibition
24 | COc1ccc(OP(C)(=O)Nc2ccc(SC(F)(F)F)cc2)cc1 (stereo not given) | inactive: 0.0173%
25 | CC1=NCCc2c1[nH]c1ccccc21.O=[N+]([O-])c1cc([N+](=O)[O-])c(O)c([N+](=O)[O-])c1 | inactive: -0.0719%
26 | CP(=O)(Nc1cccc(Br)c1)Oc1ccccc1 (stereo not given) | inactive: 0.771%
27 | CCOC(=O)c1ccc(NP(C)(=O)Oc2cc(C)cc(C)c2)cc1 (stereo not given) | inactive: 6.52%
28 | O=[N+]([O-])c1cc([N+](=O)[O-])c(-n2nnc3ccccc32)c([N+](=O)[O-])c1 | inactive: -3.25%
29 | CN1CCCCC1COC(=O)C1(O)c2ccccc2CCc2ccccc21 (stereo not given) | inactive: 13.2%
30 | CP(=O)(Nc1ccc(SC(F)(F)F)cc1)Oc1ccccc1 (stereo not given) | inactive: 0.732%
31 | CCCOc1ccc(NP(C)(=O)Oc2ccc(Cl)cc2)cc1 (stereo not given) | inactive: 6.57%
32 | O=[N+]([O-])c1cc([N+](=O)[O-])c(Nc2nnnn2CCO)c([N+](=O)[O-])c1 | inactive: -6.22% [at 57.5 µM]
33 | CP(=O)(Nc1ccccc1Br)Oc1ccccc1 (stereo not given) | inactive: -5%
34 | COc1ccccc1OP(C)(=O)Nc1ccccc1 (stereo not given) | inactive: -0.386%
35 | CCOC(=O)c1ccc(NP(C)(=O)Oc2ccc(OC)cc2)cc1 (stereo not given) | inactive: 1.43%
36 | CP(=O)(Oc1ccccc1)OC(c1ccccc1)C(F)(F)F (stereo not given) | inactive: -5.31%
37 | CP(=O)(Nc1ccc(SC(F)(F)F)cc1)Oc1ccc(Cl)cc1 (stereo not given) | inactive: 7.54% [at 57.5 µM]
38 | Cc1cccc(C)c1OP(C)(=O)Nc1ccc(SC(F)(F)F)cc1 (stereo not given) | inactive: 7.4%
39 | Cc1cc(C)cc(OP(C)(=O)Nc2ccc(SC(F)(F)F)cc2)c1 (stereo not given) | inactive: 11%
40 | CCOC(=O)c1ccc(NP(C)(=O)Oc2ccccc2)cc1 (stereo not given) | inactive: 1.4%
41 | Cc1cc(C)cc(OP(C)(N)=O)c1 (stereo not given) | inactive: -0.785%
42 | COc1ccccc1OP(C)(=O)Nc1cc(Cl)ccc1C (stereo not given) | inactive: 6.52%
43 | O=[N+]([O-])c1ccc2c(c1)C=Nc1ccccc1O2 | inactive: -6.08%
44 | Cc1cccc(C)c1OP(C)(N)=O (stereo not given) | inactive: 29.9%
45 | CC(C)(C)c1ccc(OP(C)(=O)Nc2ccc(SC(F)(F)F)cc2)cc1 (stereo not given) | inactive: 1.04%
